Consider one compound from patent US9629848B2, “Compounds that modulate autoimmunity and methods of using the same” (The Regents of the University of Colorado, a body corporate, priority 2011, dated 2017).

SMILES strings stand for the structures. Some results are limits rather than exact numbers.

The test system of this assay is clone 5 T cell hybridoma (DQ8 restricted T cell that responds to insulin B:9-23). In words: T cell stimulation assay, clone 5 T cell hybridoma with insulin B:9-23 peptide. The note with it: read-out: T cell stimulation Assay Clone 5 & B:9-23 (IC50); IL-2 in supernatant after overnight culture; < means lower concentrations have not been used.

`[H]/N=C(\NCCBr)NN(O)O`: the IC50 is below 100 nM.
